Source: patent US11899021B2, “Luciferase-based thermal shift assays” (Promega Corporation, priority 2015, dated 2024)

By UniProt entry, the sequences of proteins in these tests, tags left out.
UniProt Q13547, whole entry: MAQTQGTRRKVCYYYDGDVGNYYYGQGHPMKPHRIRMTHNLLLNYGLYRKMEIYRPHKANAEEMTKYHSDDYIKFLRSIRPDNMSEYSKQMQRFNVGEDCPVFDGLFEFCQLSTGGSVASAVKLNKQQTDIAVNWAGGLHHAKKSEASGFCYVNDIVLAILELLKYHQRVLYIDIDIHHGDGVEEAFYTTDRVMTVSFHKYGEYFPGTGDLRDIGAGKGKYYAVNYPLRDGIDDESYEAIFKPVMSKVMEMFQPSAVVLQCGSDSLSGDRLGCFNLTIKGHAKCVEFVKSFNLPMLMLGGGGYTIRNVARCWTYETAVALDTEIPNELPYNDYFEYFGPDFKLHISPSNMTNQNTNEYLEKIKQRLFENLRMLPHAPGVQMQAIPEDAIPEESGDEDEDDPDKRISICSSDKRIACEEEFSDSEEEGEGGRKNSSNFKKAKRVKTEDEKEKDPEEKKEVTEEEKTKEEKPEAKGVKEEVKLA

Target: HDAC1-Nluc (Homo sapiens, UniProt Q13547)
Test: Direct-luciferase-detection thermal shift assay, HDAC1-Nluc (Example 7)
Conditions: HeLa cells then digitonin, 10 uL of 1 mM stock per well

O=C(CCCCCCC(=O)Nc1ccccc1)NO [SAHA]
shift in melting temperature (apparent Tagg) compared to the controls: significant shift in melting temperature (apparent Tagg)
